## scFv variants of Ab-14 (light chain) against a SARS-CoV-2 spike peptide

The target is the same throughout: PDVDLGDISGINAS, from the HR2 region of SARS-CoV-2 spike.

Parent: Ab-14, a human scFv built as VH, three GGGGS repeats, VL. Only the CDRs of the light chain vary.
VH: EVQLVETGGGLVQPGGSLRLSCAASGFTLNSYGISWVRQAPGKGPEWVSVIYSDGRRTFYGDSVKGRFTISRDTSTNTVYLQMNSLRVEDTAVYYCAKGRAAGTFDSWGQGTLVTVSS
VL: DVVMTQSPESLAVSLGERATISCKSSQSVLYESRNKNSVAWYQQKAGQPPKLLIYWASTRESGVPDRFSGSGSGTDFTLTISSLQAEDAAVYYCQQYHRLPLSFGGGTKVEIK

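The starting antibody came from a phage panning campaign against this peptide. The variants were designed computationally from a first round of random CDR variants and then made and measured. Their group label is 14L_GP_Gen (GP: Gaussian process model; Gen: genetic algorithm; a sequence that several methods proposed may carry one label only). The assay is AlphaSeq: two haploid yeast populations carry antibody and antigen on their surface. Pairs that bind mate more often; barcode pairs of the diploids are counted by sequencing. Each replicate has its own calibration line, from reference interactions of the BCL2 family. Mating was done six times.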

Each variant is given by its three light chain CDRs, as the data file delimits them; those of the parent are KSSQSVLYESRNKNSVA, WASTRES, QQYHRLPLS.
Values are log10 of the apparent Kd in nM; lower means stronger binding.
A pair that was not seen in that replicate is written "nd"; this usually means weak binding, but a binder can also be missed.

The variant KLQQSWLYESRNKNSVA, NASQRMS, QQYHRLPLS gave -0.17, -0.04, 0.09, -0.20, 0.15, -0.10 (controls 1 of 18).
The variant KLMQSVLYESRNKNSVA, GASTRES, QQYHRLPLS gave -0.12, -0.15, -0.14, -0.44, -0.33, -0.15 (controls 3 of 18).
The variant KLEQSWLYESRNKNSVA, NASTRMS, QQYHRLPLS gave -0.07, -0.18, -0.18, -0.36, -0.29, -0.13 (controls 1 of 18).
The variant KLSQSWLYESRNKNSVA, GASTREV, QQYHRLPLS gave -0.19, -0.29, -0.48, -0.66, -0.42, -0.33 (controls 0 of 18).
The variant KLSQSVLYESRQKNSVA, NASTRMQ, QQYHRLPLS gave 0.26, 0.10, -0.04, 0.10, 0.21, 0.22 (controls 0 of 18).
The variant KVSGSVLYESRNKNSVA, EASTRES, QQYHRLPLS gave 0.19, 0.05, -0.09, -0.20, 0.07, 0.27 (controls 0 of 18).
The variant KLSQSWLYEERNKNSVA, NASQRES, QQYHRLPLS gave -0.21, -0.37, -0.27, -0.26, -0.32, -0.18 (controls 2 of 18).
The variant KISQSVDYESRNKNSVA, NASTRES, QQYHRLPLS gave 0.02, -0.33, -0.29, -0.44, -0.48, -0.22 (controls 0 of 18).
The variant KLPQSHLYESRNKNSVA, AASTRES, QQYHRLPLS gave 0.06, -0.18, -0.37, -0.20, -0.09, -0.20 (controls 1 of 18).
The variant HLSQSVLYESRQKNSVA, NASQRES, QQYHRLPLS gave -0.19, -0.46, -0.39, -0.45, -0.38, -0.27 (controls 1 of 18).
The variant KLQQSEDYESRNKNSVA, NASTRES, QQYHRLPLS gave -0.20, -0.22, -0.35, -0.57, -0.24, -0.32 (controls 0 of 18).
The variant KLPQSELYESRNKNSVA, GASTRES, QQYHRLPLS gave 0.06, -0.16, 0.01, -0.30, 0.02, 0.13 (controls 1 of 18).
The variant KLSWSVLYESRNKNSVA, EASTRES, QQYHRLPLS gave 0.02, -0.04, -0.03, -0.02, -0.21, 0.28 (controls 0 of 18).
The variant KLQQSVEYESRNKNSVA, HASTRCS, QQYHRLPLS gave -0.14, -0.08, -0.05, -0.25, -0.04, -0.05 (controls 0 of 18).
The variant KLSQSQLYESRNKNSVA, NASQRES, QDYHRLPLS gave -0.11, -0.18, 0.03, -0.12, 0.04, 0.35 (controls 0 of 18).
The variant KLSQSMEYESRNKNSVA, NASTRLS, QQYHRLPLS gave -0.19, 0.03, -0.35, -0.40, -0.21, -0.14 (controls 1 of 18).
The variant KVRQSQLYESRNKNSVA, NASQRES, QQYHRLPLS gave -0.41, -0.15, -0.50, -0.70, -0.64, -0.18 (controls 0 of 18).
The variant KVEQSDLYESRNKNSVA, NASTRES, QQYHRLPLS gave -0.18, -0.37, -0.37, -0.39, -0.29, -0.17 (controls 1 of 18).
The variant KLSQSELYESRNKNSVA, EASLRES, QQYHRLPLS gave 0.47, 0.33, 0.43, 0.30, 0.13, 0.36 (controls 1 of 18).
The variant KLSQSYLYESRNKNSVA, NASQRLS, QQYHRLPLS gave -0.45, -0.23, -0.39, -0.48, -0.39, -0.44 (controls 0 of 18).
The variant KLEQSWEYESRNKNSVA, NASQRES, QQYHRLPLS gave 0.60, 2.06, 1.89, nd, nd, 1.31 (controls 0 of 18).
The variant KLPQSVLYESRNKNAVA, SASTRES, QQYHRLPLS gave 0.26, -0.04, 0.27, 0.02, 0.05, 0.03 (controls 2 of 18).
The variant KLSQSCLYESRNKNSVA, NASTRLS, QQYHRLPLS gave 0.29, -0.01, 0.13, -0.03, 0.04, 0.18 (controls 3 of 18).
The variant KLPQSTLYESRNKNSVA, NASTRED, QQYHRLPLS gave -0.08, -0.30, -0.08, -0.41, -0.25, -0.07 (controls 0 of 18).
The variant KLSGSVLMESRNKNSVA, EASTRES, QQYHRLPLS gave -0.11, -0.30, -0.28, -0.27, -0.31, -0.16 (controls 1 of 18).
The variant KLMQSVLYESRNKNSVA, GASQRES, QQYHRLPLS gave 0.78, 0.51, 0.25, 0.28, 0.73, 0.20 (controls 1 of 18).
The variant YLSQSWLYESRNKNSVA, NASTRES, QQYHRLPLS gave -0.34, -0.41, -0.21, -0.57, -0.45, -0.19 (controls 1 of 18).
The variant KLSQSVLYESRNKNSVA, NGSTREQ, QQYHRLPLS gave -0.12, -0.35, -0.31, -0.40, -0.45, -0.25 (controls 1 of 18).
The variant KLMQSELYESRNKNSVA, NASTRED, QQYHRLPLS gave 0.03, 0.16, -0.18, -0.06, -0.09, -0.14 (controls 0 of 18).
The variant KVSQSMLYESRNKNAVA, NASTRES, QQYHRLPLS gave -0.24, -0.33, -0.37, -0.44, -0.27, -0.29 (controls 1 of 18).
The variant KLSQSQLYESRNKNSVA, NASTREQ, QQYHRLPLS gave 0.51, 0.22, 0.24, 0.28, 0.35, 0.33 (controls 0 of 18).
The variant KLSQSVLYESRNFNSVA, NASTREV, QQYHRLPLS gave -0.19, -0.17, -0.17, -0.37, -0.44, -0.11 (controls 0 of 18).

Repeated from above, the 3 best binders with a signal in all replicates:

CDR-L1	CDR-L2	CDR-L3	log10 Kd (nM) by replicate	empty controls
KVRQSQLYESRNKNSVA	NASQRES	QQYHRLPLS	-0.41, -0.15, -0.50, -0.70, -0.64, -0.18	0 of 18
KLSQSWLYESRNKNSVA	GASTREV	QQYHRLPLS	-0.19, -0.29, -0.48, -0.66, -0.42, -0.33	0 of 18
KLSQSYLYESRNKNSVA	NASQRLS	QQYHRLPLS	-0.45, -0.23, -0.39, -0.48, -0.39, -0.44	0 of 18

Empty control strains, which show no peptide, gave a signal in 4% of pairings with all light chain designs; the median was 2.64 and 95% of these signals were weaker than 1.59. No background was subtracted. For each scFv, signals with the empty controls are counted beside the result.
The range of this assay differs from that of the first round, and the authors advise against merging the two.
The parent sequence was in this pool as ten entries: three were never detected, three once, and four in most replicates, with averages from 0.34 to 2.37.
In the paper, a design with two or fewer of six values counts as a poor binder.

Values reported by Li et al. 2023, doi:10.1038/s41467-023-39022-2 (FLAb copy).